Measured affinities in a library of Ab-14 light chain variants

Target: peptide PDVDLGDISGINAS, taken from heptad repeat 2 (HR2) of SARS-CoV-2 spike.

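Phage display of a naive human antibody library on the peptide gave the parent. The variants were designed computationally from a first round of random CDR variants and then made and measured. Group labels follow the data file (En: ensemble of fine-tuned language models; GP: Gaussian process model; HC: hill climbing; Gen: genetic algorithm; Gibbs: Gibbs sampling; a sequence that several methods proposed may carry one label only). The scFvs were displayed on barcoded MATa yeast, the peptide on MATalpha yeast. Mating (16 h, 30 °C) was followed by selection of diploids and sequencing of their barcodes. The ratio of observed to expected reads was calibrated, replicate by replicate, on BCL2-family standards whose Kd was known from biolayer interferometry. Mating was done six times.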

Ab-14 is the parent antibody, in scFv form: VH, then a (GGGGS)3 linker, then VL. The heavy chain is unchanged in all variants.
VH: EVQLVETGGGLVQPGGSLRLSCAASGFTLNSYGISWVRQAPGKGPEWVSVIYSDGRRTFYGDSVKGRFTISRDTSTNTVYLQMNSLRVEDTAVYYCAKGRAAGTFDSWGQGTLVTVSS
VL: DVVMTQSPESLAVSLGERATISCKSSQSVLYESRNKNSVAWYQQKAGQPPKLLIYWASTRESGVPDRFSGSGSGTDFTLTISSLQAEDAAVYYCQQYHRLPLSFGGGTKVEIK

Each variant is given by its three light chain CDRs, as the data file delimits them; those of the parent are KSSQSVLYESRNKNSVA, WASTRES, QQYHRLPLS. This list holds designs with more than six substitutions. The Kd shown is the geometric mean over detected replicates; a lower Kd is a better binder. "nd" marks a missing value. The strain was present, yet no cells mated with the target were sequenced in any replicate, which points to weak or no binding. Three control strains display no target. For all light chain designs, 4% of the pairings with them gave a signal, with a median of 430 nM and one signal in twenty below 38 nM, so weak values seen in few replicates may be background. The authors' rule: three or more of the six replicates give a measured affinity, fewer mean a poor binder. The range of this assay differs from that of the first round, and the authors advise against merging the two.

- QLYAVQDMTSKNENSVA | EQSTREN | QQYHRLPLS [En_HC]: 24 nM (6 of 6 replicates)
- KVEQLVLYESRNKNAVA | QGSTRES | QQYHRLPLH [GP_Gibbs]: 2.1 nM (6 of 6 replicates)
- MLSMVTEGMRRKHNSVA | DNSTREA | QQYDRLPLS [En_Gen]: 69 nM (6 of 6 replicates)
- MFSQLTYTGSRTRNAVA | QASTREN | QQYHHLPLT [En_HC]: 4.8 nM (6 of 6 replicates)
- KVMQSVGQGQRNKNSVA | EASTRER | QQYHRLPLS [GP_Gibbs]: 1.8 nM (6 of 6 replicates)
- QITFKQQYDFGNTYNIA | DATYSGR | QQYSQLPLS [En_Gibbs]: 330 nM (6 of 6 replicates)
- KASPSQEYESRNKQSVA | HASLREE | QQYHRLPLS [GP_Gibbs]: 760 pM (6 of 6 replicates)
- MMSQVTGLGMRHQNNVA | QTSTREP | QQYDRLPLI [En_Gen]: 9.1 nM (6 of 6 replicates)
- KMSQSQEYESRNSNAVA | NASQRLQ | QQYHRLPLS [GP_Gibbs]: 1.0 nM (6 of 6 replicates)
- KAQMLNLYEDRNKNSVA | NASTRED | QQYHRLPLS [GP_Gibbs]: 2.1 nM (5 of 6 replicates)
- KISQLVNFEGKHKNSVA | QMSTRES | QQYDRLPLS [En_HC]: 1.9 nM (6 of 6 replicates)
- KLQNFSQEPNKMWNNIA | DMTMKHT | QQYNRLPLV [En_Gibbs]: 2.8 nM (6 of 6 replicates)
- KLASRQYQFGANHQNIA | DATDSMN | QQYMHLPFT [En_Gibbs]: 230 pM (6 of 6 replicates)
- IVSQLMLWGYHAKNSIA | EAETRPN | QQYDRLPLI [En_Gen]: 140 nM (4 of 6 replicates)
- KLGQMTAIESRNLNSVA | QMTTRES | QQYDRLPLS [En_HC]: 2.7 nM (6 of 6 replicates)
- TISHSMRYESSLKNAIA | NAQTRES | QQYHRLPIS [En_HC]: 1.1 nM (6 of 6 replicates)
- MVYETMDIAMMKKNSIA | DNQTRED | QQYHHLPLS [En_Gen]: 1.8 µM (3 of 6 replicates)
- HLGLVTMLEEAVRNSVA | NNSTREE | QQYDRLPLS [En_Gen]: nd (0 of 6 replicates)
- HIGLSTMLEEIVRNSVA | NNSTREE | QQYDRLPLS [En_Gen]: 270 nM (5 of 6 replicates)
- KIQDNLGTLMQQINSVA | SSEEKSD | QSYFRLPLI [En_Gibbs]: 13 nM (6 of 6 replicates)
- KLSQSNGYESRMKNSVA | NASQREC | QQYHRLPLS [GP_Gibbs]: 8.5 nM (6 of 6 replicates)
- MISQLMNMGQFAINSVA | QASQRCN | QQYDRLPLM [En_Gen]: 20 nM (5 of 6 replicates)
- VFSGQWDLNTTQNSSVA | NVSETML | QQYNRLPLM [En_Gibbs]: 140 nM (5 of 6 replicates)
- RLTEHTSERAYADASVA | EASTRND | QQYHRLPLF [En_Gibbs]: 650 pM (6 of 6 replicates)
- KLQTSWGYEKRNKNSVA | QASQRES | QQYHRLPLS [GP_Gibbs]: 15 nM (6 of 6 replicates)
- KVSEFMRGLMQKTDSIA | DNVTRNS | QQYDRLPLS [En_Gen]: 66 nM (6 of 6 replicates)
- KFQWSNPYESRNKNSVA | NASTRES | QQYWRLPLS [GP_Gibbs]: 1.8 nM (6 of 6 replicates)
- IMSEGQERDASRLNNIA | DHYTRAT | QQYARLPLS [En_Gibbs]: 1.2 nM (6 of 6 replicates)
- SITVIDNPGSQLHNNIA | QGSCKAE | QQYIRLPLI [En_Gibbs]: 4.1 nM (6 of 6 replicates)
- HISQSFMTESVWRNNIA | HQSTREQ | QQYDRLPFS [En_HC]: 2.9 nM (6 of 6 replicates)
- KISMSITFESRNKNNVA | ENSTRES | QSYHRLPLS [En_HC]: 110 nM (1 of 6 replicates)
- KFVQSWLYESRNKNNVA | HASQRCS | QQYHRLPLS [GP_Gibbs]: 1.2 nM (6 of 6 replicates)
- IFEQGQWNGQQNHNAMA | NGHTRMQ | QQYFKLPLV [En_Gibbs]: 7.4 nM (6 of 6 replicates)
- KIGATLNQMMHKKNNVA | DLVTREN | QQYFRLPLS [En_Gen]: 5.2 nM (6 of 6 replicates)
- SLYDATQMESRNKNPIA | DVSTRPS | QQYHRLPLS [En_HC]: 460 pM (6 of 6 replicates)
- HMSFLTLGGMRQKNSVA | QMTTREN | QQYDHLPLS [En_Gen]: 40 nM (6 of 6 replicates)
- MISQLMNLGQFAINSVA | QASIRNA | QQYDRLPLA [En_Gen]: 130 nM (4 of 6 replicates)
- KMTEQLLNGEREPSSIA | AGVIGSD | QQYHRLPLI [En_Gibbs]: 21 nM (6 of 6 replicates)
- KMAMALSPEFGTYHGVA | DAEHRMH | QQYNRLPLS [En_Gibbs]: 860 pM (6 of 6 replicates)
- TVSQVHEMLSRNKNSVA | DMNTREN | QQYDRLPLS [En_HC]: 750 pM (6 of 6 replicates)
- KLEQSNLYEDRNANNVA | NASQRES | QQYHRLPLS [GP_Gibbs]: 560 pM (6 of 6 replicates)
- MISDLTMYGSRNVNSVA | DLSTRGN | QQYHRLPLS [En_HC]: 930 pM (6 of 6 replicates)

The last 7 entries again:

{"CDR-L1": "HMSFLTLGGMRQKNSVA", "CDR-L2": "QMTTREN", "CDR-L3": "QQYDHLPLS", "group": "En_Gen", "Kd": "40 nM", "detected": "6/6"}
{"CDR-L1": "MISQLMNLGQFAINSVA", "CDR-L2": "QASIRNA", "CDR-L3": "QQYDRLPLA", "group": "En_Gen", "Kd": "130 nM", "detected": "4/6"}
{"CDR-L1": "KMTEQLLNGEREPSSIA", "CDR-L2": "AGVIGSD", "CDR-L3": "QQYHRLPLI", "group": "En_Gibbs", "Kd": "21 nM", "detected": "6/6"}
{"CDR-L1": "KMAMALSPEFGTYHGVA", "CDR-L2": "DAEHRMH", "CDR-L3": "QQYNRLPLS", "group": "En_Gibbs", "Kd": "860 pM", "detected": "6/6"}
{"CDR-L1": "TVSQVHEMLSRNKNSVA", "CDR-L2": "DMNTREN", "CDR-L3": "QQYDRLPLS", "group": "En_HC", "Kd": "750 pM", "detected": "6/6"}
{"CDR-L1": "KLEQSNLYEDRNANNVA", "CDR-L2": "NASQRES", "CDR-L3": "QQYHRLPLS", "group": "GP_Gibbs", "Kd": "560 pM", "detected": "6/6"}
{"CDR-L1": "MISDLTMYGSRNVNSVA", "CDR-L2": "DLSTRGN", "CDR-L3": "QQYHRLPLS", "group": "En_HC", "Kd": "930 pM", "detected": "6/6"}

From the AlphaSeq antibody data of Li et al. 2023 (doi:10.1038/s41467-023-39022-2), copy in the FLAb collection.